In PubChem BioAssay (NCI):
Some results for these compounds are left out of this collection, so the calls shown say nothing about other tests.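 Test compounds were applied to cells in 96-well plates for 48 hours at 5 doses. Here, GI50 denotes the concentration required for 50% inhibition of growth. Definition used: TGI = concentration required for complete inhibition of growth.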

Assays:
Experiment in all cases: DTP human tumour cell line panel, 48 h
NCI-H522 lung = system: NCI-H522 lung
MALME-3M melanoma = system: MALME-3M melanoma
IGROV1 ovarian = system: IGROV1 ovarian
SK-MEL-2 melanoma = system: SK-MEL-2 melanoma
NCI/ADR-RES ovarian = system: NCI/ADR-RES ovarian
SF-295 CNS = system: SF-295 CNS
KM12 colon = system: KM12 colon
OVCAR-8 ovarian = system: OVCAR-8 ovarian
CCRF-CEM leukemia = system: CCRF-CEM leukemia
T-47D breast = system: T-47D breast
PC-3 prostate = system: PC-3 prostate
HL-60(TB) leukemia = system: HL-60(TB) leukemia
OVCAR-4 ovarian = system: OVCAR-4 ovarian
NCI-H23 lung = system: NCI-H23 lung
SK-MEL-5 melanoma = system: SK-MEL-5 melanoma
NCI-H322M lung = system: NCI-H322M lung
A498 renal = system: A498 renal
RXF 393 renal = system: RXF 393 renal
MCF7 breast = system: MCF7 breast
M14 melanoma = system: M14 melanoma
MOLT-4 leukemia = system: MOLT-4 leukemia
EKVX NSCLC = system: EKVX NSCLC
MDA-MB-231 breast = system: MDA-MB-231 breast
U251 CNS = system: U251 CNS
OVCAR-3 ovarian = system: OVCAR-3 ovarian
SK-MEL-28 melanoma = system: SK-MEL-28 melanoma
TK-10 renal = system: TK-10 renal
HOP-62 NSCLC = system: HOP-62 NSCLC
SF-268 CNS = system: SF-268 CNS
SN12C renal = system: SN12C renal
SF-539 CNS = system: SF-539 CNS
ACHN renal = system: ACHN renal
HT29 colon = system: HT29 colon
HCT-15 colon = system: HCT-15 colon
DU-145 prostate = system: DU-145 prostate
SR leukemia = system: SR leukemia
SNB-75 CNS = system: SNB-75 CNS
HCC-2998 colon = system: HCC-2998 colon
HCT-116 colon = system: HCT-116 colon
LOX IMVI melanoma = system: LOX IMVI melanoma
A549 NSCLC = system: A549 NSCLC
OVCAR-5 ovarian = system: OVCAR-5 ovarian
RPMI-8226 leukemia = system: RPMI-8226 leukemia
786-0 renal = system: 786-0 renal
SNB-19 CNS = system: SNB-19 CNS
COLO 205 colon = system: COLO 205 colon
SW-620 colon = system: SW-620 colon
NCI-H460 lung = system: NCI-H460 lung
NCI-H226 lung = system: NCI-H226 lung
HS 578T breast = system: HS 578T breast
MDA-MB-435 = system: MDA-MB-435
UACC-62 melanoma = system: UACC-62 melanoma
CAKI-1 renal = system: CAKI-1 renal
K-562 leukemia = system: K-562 leukemia
HOP-92 NSCLC = system: HOP-92 NSCLC
MDA-N = system: MDA-N
UACC-257 melanoma = system: UACC-257 melanoma

CC/C=C\C(O)(C(=O)OC1CCN(C)CC1)C1CCCC1 (centres undefined)
GI50 (NCI-H522 lung): > 100 µM | TGI (NCI-H522 lung): > 100 µM | GI50 (MALME-3M melanoma): > 100 µM | TGI (MALME-3M melanoma): > 100 µM | GI50 (IGROV1 ovarian): > 100 µM | TGI (IGROV1 ovarian): > 100 µM | GI50 (SK-MEL-2 melanoma): > 100 µM | TGI (SK-MEL-2 melanoma): > 100 µM | GI50 (NCI/ADR-RES ovarian): > 100 µM | TGI (NCI/ADR-RES ovarian): > 100 µM | GI50 (SF-295 CNS): > 100 µM | TGI (SF-295 CNS): > 100 µM | GI50 (KM12 colon): > 100 µM | TGI (KM12 colon): > 100 µM | GI50 (OVCAR-8 ovarian): > 100 µM | TGI (OVCAR-8 ovarian): > 100 µM | GI50 (CCRF-CEM leukemia): > 100 µM | TGI (CCRF-CEM leukemia): > 100 µM | GI50 (T-47D breast): > 100 µM | TGI (T-47D breast): > 100 µM | GI50 (PC-3 prostate): > 100 µM | TGI (PC-3 prostate): > 100 µM | GI50 (HL-60(TB) leukemia): > 100 µM | TGI (HL-60(TB) leukemia): > 100 µM | GI50 (OVCAR-4 ovarian): > 100 µM | TGI (OVCAR-4 ovarian): > 100 µM | GI50 (NCI-H23 lung): > 100 µM | TGI (NCI-H23 lung): > 100 µM | GI50 (SK-MEL-5 melanoma): > 100 µM | TGI (SK-MEL-5 melanoma): > 100 µM | GI50 (NCI-H322M lung): > 100 µM | TGI (NCI-H322M lung): > 100 µM | GI50 (A498 renal): > 100 µM | TGI (A498 renal): > 100 µM | GI50 (RXF 393 renal): > 100 µM | TGI (RXF 393 renal): > 100 µM | GI50 (MCF7 breast): > 100 µM | TGI (MCF7 breast): > 100 µM | GI50 (M14 melanoma): > 100 µM | TGI (M14 melanoma): > 100 µM | GI50 (MOLT-4 leukemia): > 100 µM | TGI (MOLT-4 leukemia): > 100 µM | GI50 (EKVX NSCLC): > 100 µM | TGI (EKVX NSCLC): > 100 µM | GI50 (MDA-MB-231 breast): > 100 µM | TGI (MDA-MB-231 breast): > 100 µM | GI50 (U251 CNS): > 100 µM | TGI (U251 CNS): > 100 µM | GI50 (OVCAR-3 ovarian): > 100 µM | TGI (OVCAR-3 ovarian): > 100 µM | GI50 (SK-MEL-28 melanoma): > 100 µM | TGI (SK-MEL-28 melanoma): > 100 µM | GI50 (TK-10 renal): > 100 µM | TGI (TK-10 renal): > 100 µM | GI50 (HOP-62 NSCLC): > 100 µM | TGI (HOP-62 NSCLC): > 100 µM | GI50 (SF-268 CNS): > 100 µM | TGI (SF-268 CNS): > 100 µM | GI50 (SN12C renal): > 100 µM | TGI (SN12C renal): > 100 µM | GI50 (SF-539 CNS): > 100 µM | TGI (SF-539 CNS): > 100 µM | GI50 (ACHN renal): > 100 µM | TGI (ACHN renal): > 100 µM | GI50 (HT29 colon): > 100 µM | TGI (HT29 colon): > 100 µM | GI50 (HCT-15 colon): > 100 µM | TGI (HCT-15 colon): > 100 µM | GI50 (DU-145 prostate): > 100 µM | TGI (DU-145 prostate): > 100 µM | GI50 (SR leukemia): > 100 µM | TGI (SR leukemia): > 100 µM | GI50 (SNB-75 CNS): > 100 µM | TGI (SNB-75 CNS): > 100 µM | GI50 (HCC-2998 colon): > 100 µM | TGI (HCC-2998 colon): > 100 µM | GI50 (HCT-116 colon): > 100 µM | TGI (HCT-116 colon): > 100 µM | GI50 (LOX IMVI melanoma): > 100 µM | TGI (LOX IMVI melanoma): > 100 µM | GI50 (A549 NSCLC): > 100 µM | TGI (A549 NSCLC): > 100 µM | GI50 (OVCAR-5 ovarian): > 100 µM | TGI (OVCAR-5 ovarian): > 100 µM | GI50 (RPMI-8226 leukemia): > 100 µM | TGI (RPMI-8226 leukemia): > 100 µM | GI50 (786-0 renal): > 100 µM | TGI (786-0 renal): > 100 µM | GI50 (SNB-19 CNS): > 100 µM | TGI (SNB-19 CNS): > 100 µM | GI50 (COLO 205 colon): > 100 µM | TGI (COLO 205 colon): > 100 µM | GI50 (SW-620 colon): > 100 µM | TGI (SW-620 colon): > 100 µM | GI50 (NCI-H460 lung): > 100 µM | TGI (NCI-H460 lung): > 100 µM | GI50 (NCI-H226 lung): > 100 µM | TGI (NCI-H226 lung): > 100 µM | GI50 (HS 578T breast): > 100 µM | TGI (HS 578T breast): > 100 µM | GI50 (MDA-MB-435): > 100 µM | TGI (MDA-MB-435): > 100 µM | GI50 (UACC-62 melanoma): > 100 µM | TGI (UACC-62 melanoma): > 100 µM | GI50 (CAKI-1 renal): > 100 µM | TGI (CAKI-1 renal): > 100 µM | GI50 (K-562 leukemia): > 100 µM | TGI (K-562 leukemia): > 100 µM | GI50 (HOP-92 NSCLC): 56.4 µM | TGI (HOP-92 NSCLC): > 100 µM | GI50 (MDA-N): > 100 µM | TGI (MDA-N): > 100 µM | GI50 (UACC-257 melanoma): > 100 µM | TGI (UACC-257 melanoma): > 100 µM
